From patent publication US20040072743A1 (priority 2000, published 2004)

Tests used:
[1] = Oral bioavailability in rats (Example 11); details: Sprague-Dawley rats, approx. 10 mg/kg p.o. vs i.v., 5% glucose solution, plasma 0-4 hours
[2] = Subcutaneous bioavailability in rats (Example 12); details: Sprague-Dawley rats, approx. 10 mg/kg s.c. vs i.v., 5% glucose solution, plasma 0-4 hours

Compound	oral bioavailability (AUC[p.o. adm]/AUC[i.v. adm.])×100% [1]	subcutaneous bioavailability (AUC[s.c. adm]/AUC[i.v. adm.])×100% [2]
Cc1cn(CC(=O)N(CCNC(=O)CN(CCNC(=O)CN(CCNC(=O)CN(CCNC(=O)CN(CCNC(=O)CN(CCNC(=O)CN(CCNC(=O)CN(CCNC(=O)CN(CCNC(=O)CN(CCNC(=O)CN(CCNC(=O)CN(CCNC(=O)COCCOCCNC(=O)[C@H](CCCCN)NC(=O)[C@H](Cc2ccccc2)NC(=O)[C@H](Cc2ccccc2)NC(=O)[C@H](CCCCN)NC(=O)[C@H](Cc2ccccc2)NC(=O)[C@H](Cc2ccccc2)NC(=O)[C@H](CCCCN)NC(=O)[C@H](Cc2ccccc2)NC(=O)[C@H](Cc2ccccc2)NC(=O)[C@@H](N)CCCCN)C(=O)Cn2cc(C)c(=O)[nH]c2=O)C(=O)Cn2cc(C)c(=O)[nH]c2=O)C(=O)Cn2ccc(N)nc2=O)C(=O)Cn2cnc3c(N)ncnc32)C(=O)Cn2cnc3c(N)ncnc32)C(=O)Cn2cnc3c(N)ncnc32)C(=O)Cn2ccc(N)nc2=O)C(=O)Cn2cnc3c(N)ncnc32)C(=O)Cn2cc(C)c(=O)[nH]c2=O)C(=O)Cn2cnc3c(N)ncnc32)C(=O)Cn2cnc3c(=O)[nH]c(N)nc32)CC(N)=O)c(=O)[nH]c1=O	14%	105%
H-KFFKFFKFFK-C-smcc-ado-TTC AAA CAT AGT-NH2	15%	
H2N-KFFKVKFVVKK-C-smcc-ado-TTC AAA CAT AGT-NH2	15%	84%
